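Interpolation was linear, between the two tested concentrations surrounding the appropriate level; five concentrations were tested over 48 hours in 96-well plates. Abbreviation: GI50, concentration required for 50% inhibition of growth. At the TGI there is no net growth.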
Experiments:
Experiment in all cases: inhibition of tumour cell growth, NCI panel, 48 h
RPMI-8226 leukemia = tested on: RPMI-8226 leukemia
NCI-H226 lung = tested on: NCI-H226 lung
TK-10 renal = tested on: TK-10 renal
NCI-H460 lung = tested on: NCI-H460 lung
OVCAR-5 ovarian = tested on: OVCAR-5 ovarian
OVCAR-8 ovarian = tested on: OVCAR-8 ovarian
M14 melanoma = tested on: M14 melanoma
A549 NSCLC = tested on: A549 NSCLC
SW-620 colon = tested on: SW-620 colon
SK-OV-3 ovarian = tested on: SK-OV-3 ovarian
SNB-75 CNS = tested on: SNB-75 CNS
HS 578T breast = tested on: HS 578T breast
SNB-19 CNS = tested on: SNB-19 CNS
HL-60(TB) leukemia = tested on: HL-60(TB) leukemia
HCC-2998 colon = tested on: HCC-2998 colon
SK-MEL-28 melanoma = tested on: SK-MEL-28 melanoma
LOX IMVI melanoma = tested on: LOX IMVI melanoma
EKVX NSCLC = tested on: EKVX NSCLC
HOP-92 NSCLC = tested on: HOP-92 NSCLC
SR leukemia = tested on: SR leukemia
SF-539 CNS = tested on: SF-539 CNS
HCT-116 colon = tested on: HCT-116 colon
UO-31 renal = tested on: UO-31 renal
UACC-257 melanoma = tested on: UACC-257 melanoma
HOP-62 NSCLC = tested on: HOP-62 NSCLC
PC-3 prostate = tested on: PC-3 prostate
SK-MEL-5 melanoma = tested on: SK-MEL-5 melanoma
DU-145 prostate = tested on: DU-145 prostate
SK-MEL-2 melanoma = tested on: SK-MEL-2 melanoma
MDA-N = tested on: MDA-N
CCRF-CEM leukemia = tested on: CCRF-CEM leukemia
CAKI-1 renal = tested on: CAKI-1 renal
T-47D breast = tested on: T-47D breast
IGROV1 ovarian = tested on: IGROV1 ovarian
SF-295 CNS = tested on: SF-295 CNS
NCI-H23 lung = tested on: NCI-H23 lung
U251 CNS = tested on: U251 CNS
NCI/ADR-RES ovarian = tested on: NCI/ADR-RES ovarian
UACC-62 melanoma = tested on: UACC-62 melanoma
NCI-H322M lung = tested on: NCI-H322M lung
MDA-MB-231 breast = tested on: MDA-MB-231 breast
MOLT-4 leukemia = tested on: MOLT-4 leukemia
SF-268 CNS = tested on: SF-268 CNS
OVCAR-4 ovarian = tested on: OVCAR-4 ovarian
SN12C renal = tested on: SN12C renal
OVCAR-3 ovarian = tested on: OVCAR-3 ovarian
MALME-3M melanoma = tested on: MALME-3M melanoma
786-0 renal = tested on: 786-0 renal
ACHN renal = tested on: ACHN renal
HT29 colon = tested on: HT29 colon
HCT-15 colon = tested on: HCT-15 colon
K-562 leukemia = tested on: K-562 leukemia
COLO 205 colon = tested on: COLO 205 colon
KM12 colon = tested on: KM12 colon
MDA-MB-435 = tested on: MDA-MB-435
RXF 393 renal = tested on: RXF 393 renal
MCF7 breast = tested on: MCF7 breast

## O=[N+]([O-])C1([N+](=O)[O-])CCC([N+](=O)[O-])([N+](=O)[O-])c2nn(-c3ccccc3)nc21
RPMI-8226 leukemia
  GI50: 5.26 µM
  TGI: 37.8 µM
NCI-H226 lung
  GI50: 14.1 µM
  TGI: 29.1 µM
TK-10 renal
  GI50: 20.5 µM
  TGI: 37.1 µM
NCI-H460 lung
  GI50: 16.8 µM
  TGI: 39.8 µM
OVCAR-5 ovarian
  GI50: 22.2 µM
  TGI: 37 µM
OVCAR-8 ovarian
  GI50: 25.1 µM
  TGI: 89.9 µM
M14 melanoma
  GI50: 12.1 µM
  TGI: 27.8 µM
A549 NSCLC
  GI50: 19.6 µM
  TGI: 59.5 µM
SW-620 colon
  GI50: 14 µM
  TGI: 34.4 µM
SK-OV-3 ovarian
  GI50: 28.6 µM
  TGI: 88.1 µM
SNB-75 CNS
  GI50: 17.4 µM
  TGI: 38.4 µM
HS 578T breast
  GI50: 25.9 µM
  TGI: 60.1 µM
SNB-19 CNS
  GI50: 30 µM
  TGI: 77.9 µM
HL-60(TB) leukemia
  GI50: 4.01 µM
  TGI: 24.6 µM
HCC-2998 colon
  GI50: 19 µM
  TGI: 35.7 µM
SK-MEL-28 melanoma
  GI50: 17.6 µM
  TGI: 38.1 µM
LOX IMVI melanoma
  GI50: 7.25 µM
  TGI: 21.3 µM
EKVX NSCLC
  GI50: 32.2 µM
  TGI: 92 µM
HOP-92 NSCLC
  GI50: 13.3 µM
  TGI: 27.4 µM
SR leukemia
  GI50: 3.67 µM
  TGI: > 100 µM
SF-539 CNS
  GI50: 18.9 µM
  TGI: 36.9 µM
HCT-116 colon
  GI50: 13.7 µM
  TGI: 30 µM
UO-31 renal
  GI50: 20.5 µM
  TGI: 34.8 µM
UACC-257 melanoma
  GI50: 15 µM
  TGI: 30.2 µM
HOP-62 NSCLC
  GI50: 17.6 µM
  TGI: 38 µM
PC-3 prostate
  GI50: 16.3 µM
  TGI: 31 µM
SK-MEL-5 melanoma
  GI50: 15 µM
  TGI: 28.7 µM
DU-145 prostate
  GI50: 21 µM
  TGI: 44.2 µM
SK-MEL-2 melanoma
  GI50: 21 µM
  TGI: 50.3 µM
MDA-N
  GI50: 6.17 µM
  TGI: 19.3 µM
CCRF-CEM leukemia
  GI50: 7 µM
  TGI: 93 µM
CAKI-1 renal
  GI50: 40.4 µM
  TGI: 66 µM
T-47D breast
  GI50: 18.7 µM
  TGI: 52.8 µM
IGROV1 ovarian
  GI50: 18.8 µM
  TGI: 41.3 µM
SF-295 CNS
  GI50: 20.9 µM
  TGI: 46.5 µM
NCI-H23 lung
  GI50: 13.2 µM
  TGI: 29.3 µM
U251 CNS
  GI50: 17.3 µM
  TGI: 35.1 µM
NCI/ADR-RES ovarian
  GI50: 21.6 µM
  TGI: 53.4 µM
UACC-62 melanoma
  GI50: 18 µM
  TGI: 40.6 µM
NCI-H322M lung
  GI50: 19.8 µM
  TGI: 41.5 µM
MDA-MB-231 breast
  GI50: 14.5 µM
  TGI: 28.5 µM
MOLT-4 leukemia
  GI50: 3.41 µM
  TGI: 25.9 µM
SF-268 CNS
  GI50: 16.2 µM
  TGI: 35.4 µM
OVCAR-4 ovarian
  GI50: 15.5 µM
  TGI: 39.7 µM
SN12C renal
  GI50: 12.4 µM
  TGI: 25 µM
OVCAR-3 ovarian
  GI50: 14.8 µM
  TGI: 28.1 µM
MALME-3M melanoma
  GI50: 18.1 µM
  TGI: 37.4 µM
786-0 renal
  GI50: 14.4 µM
  TGI: 28.1 µM
ACHN renal
  GI50: 24.7 µM
  TGI: 60.7 µM
HT29 colon
  GI50: 4.77 µM
  TGI: 21.3 µM
HCT-15 colon
  GI50: 12.7 µM
  TGI: 26.2 µM
K-562 leukemia
  GI50: 4.28 µM
  TGI: > 100 µM
COLO 205 colon
  GI50: 16.5 µM
  TGI: 33 µM
KM12 colon
  GI50: 14.2 µM
  TGI: 28.7 µM
MDA-MB-435
  GI50: 6.8 µM
  TGI: 20.5 µM
RXF 393 renal
  GI50: 13.8 µM
  TGI: 27.7 µM
MCF7 breast
  GI50: 17.1 µM
  TGI: 34.7 µM

Source: PubChem BioAssay (NCI)
